The results in this text go back to PubChem BioAssay AID1777 (Sanford-Burnham Center for Chemical Genomics, 2009).

Sequences of proteins named here, by UniProt entry; tags and fusion partners are left off. A change or cut given only in a name is not applied to a line headed by its entry.
UniProt P41145: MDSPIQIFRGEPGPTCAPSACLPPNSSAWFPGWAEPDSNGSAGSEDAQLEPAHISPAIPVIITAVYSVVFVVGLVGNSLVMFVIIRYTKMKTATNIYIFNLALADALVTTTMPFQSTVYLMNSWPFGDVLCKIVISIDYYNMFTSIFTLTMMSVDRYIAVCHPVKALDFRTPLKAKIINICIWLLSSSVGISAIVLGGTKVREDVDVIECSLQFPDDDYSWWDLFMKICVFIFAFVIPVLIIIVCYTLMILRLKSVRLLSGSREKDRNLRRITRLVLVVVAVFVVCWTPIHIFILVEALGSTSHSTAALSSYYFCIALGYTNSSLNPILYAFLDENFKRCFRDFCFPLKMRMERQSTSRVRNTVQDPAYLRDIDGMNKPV

Several values for one entry are separate records, joined by “and”; a condition that tells them apart may be missing. Equal values may be shown once. The list shows a part of the results. Results with a measured potency or affinity are listed apart. Activity calls are given as the source filed them. Rule as the data show it: active = activation above about 50% (passing the limit was not always enough); inactive = the rest.

The test concerns the target Kappa-type opioid receptor (Homo sapiens) (UniProt P41145). Briefly: kappa opioid receptor activators – cell-based, luminescence, uHTS, primary screen (AID 1777). Conditions: KOR beta-arrestin recruitment, at 10 µM, stronger effect = higher value. Background: Recruitment of arrestin is a read-out of receptor activation apart from second messengers.
As to `O=C(Cn1c(Cc2ccccc2)nc2ccccc21)NCc1ccc2c(c1)OCO2`, the activation is inactive: 0.2%.

As for `Cc1ccc(-c2csc(NCCn3c(-c4ccncc4)nc4ccccc43)n2)cc1`, the activation was inactive: -1.7%.

Turning to `Cc1ccc(C)c(S(=O)(=O)N2CCN(C(=O)Cn3c(C(F)(F)F)nc4ccccc43)CC2)c1`, the activation is inactive: 4.8%.

Consider `O=C(Cn1cnc2ccccc21)NCc1ccccc1`, for which the activation was inactive: -1.7%.

As to `CC(C)[C@H](NC(=O)N1CCn2c1nc1ccccc12)C(=O)NCc1ccccc1Cl`, the activation was inactive: 1.6%.

Consider `Cn1c(=O)n(CCN2CCOCC2)c(=O)c2c1nc1n2CCN1c1ccc(Oc2ccccc2)cc1`, for which the activation was inactive: 4.2%.

Regarding `COc1ccc(N2CCN(C(=O)Cn3cnc4c3c(=O)n(C)c(=O)n4C)CC2)cc1`, the activation was inactive: -0.9%.

As to `O=C(Cn1c(COc2ccccc2)nc2ccccc21)Nc1cc(Cl)cc(Cl)c1`, the activation was inactive: 21.5%.

In the case of `O=C(O)c1ccccc1[As](=O)(O)O`, the activation is inactive: 2.1%.

Take `CC(=O)Nc1ccc([As](=O)(O)O)cc1`: the activation is inactive: -0.1%.

Regarding `Cn1c(=O)c2ncn(CC(=O)Nc3ccc4c5c(cccc35)CC4)c2n(C)c1=O`, the activation is inactive: -4.9%.

Turning to `Cc1ccc2c(c1)C1CN(C)CCC1N2C(=O)c1ccccc1NS(=O)(=O)c1ccc(F)cc1` (stereo unspecified), the activation was inactive: -4.2%.

In the case of `CCOc1cccc(N2C(=O)CC(n3cnc4ccccc43)C2=O)c1` (stereo unspecified), the activation is inactive: -2%.

With `CCCCOC(=O)Cn1c(=N)n(CCN(CC)CC)c2ccccc21`, the activation was inactive: -0.7%.

Take `O=C(Cn1c(COc2ccccc2)nc2ccccc21)Nc1cccc(Cl)c1`: the activation is inactive: -1.5%.

`Cc1cccc(NC(=O)Cn2c(=O)n(C)c3ccccc32)c1`: the activation was inactive: 2.4%.

For `COc1ccc(NC2CCN(C3CC(=O)N(c4ccc(F)c(Cl)c4)C3=O)CC2)cc1` (stereo unspecified), the activation is inactive: -2.1%.

`c1ccc(CN2CCC(Nc3nc(-c4cccs4)nc4ccccc34)CC2)cc1`: the activation is inactive: 0.5%.

Consider `Cc1ccc(NP(=O)(Oc2ccccc2F)Oc2ccccc2F)nc1`, for which the activation is inactive: 1.4%.

`Cn1c(=O)c2c(ncn2CC(=O)Nc2nc3ccc(F)cc3s2)n(C)c1=O`: the activation was inactive: 0.8%.

For `CCOP(=O)(Nc1ccccc1)OCC`, the activation was inactive: -0.7% and inactive: -2.7%.

`O=C(Cn1c(/C=C/c2ccccc2)nc2ccccc21)Nc1ccc(F)cc1`: the activation is inactive: -2.3%.

Consider `CCOc1ccc2nc(NC(=O)Cn3cnc4c3c(=O)n(C)c(=O)n4C)sc2c1`, for which the activation is inactive: -1.6%.

Regarding `CCC(=O)Nc1nc2ccccc2n1CCN1CCOCC1`, the activation is inactive: -7.7%.

For `Cc1csc2c(NC3CCN(Cc4ccccc4)CC3)ncnc12`, the activation was inactive: -4.4%.

With `Cc1cccc(OCC(O)Cn2c(=N)n(CCN3CCOCC3)c3ccccc32)c1` (stereo unspecified), the activation is inactive: -7.8%.

For `O=C(CSc1nc2ccccc2n1CC(=O)N1CCCC1)NCc1ccc2c(c1)OCO2`, the activation is inactive: -8.9%.

`Cc1cc(SC(NC(=O)c2ccc(F)cc2)C(Cl)(Cl)Cl)ncn1` (stereo unspecified): the activation was inactive: 0.5%.

Take `O=[N+]([O-])c1cc(C(F)(F)F)ccc1NC1CCN(Cc2ccccc2)CC1`: the activation is inactive: 4.9%.

With `CC(C)C[C@H](NC(=O)N1CCn2c1nc1ccccc12)C(=O)NCC1CCCO1` (stereo partly specified), the activation was inactive: 0.3%.

Regarding `O=[N+]([O-])c1ncn(CCn2ncnc2[N+](=O)[O-])n1`, the activation was inactive: -0.4%.

`Cn1c(=O)c2ncn(CC(=O)Nc3nc(-c4ccc(Cl)cc4)cs3)c2n(C)c1=O`: the activation is inactive: 2.5%.

For the compound `CCCn1c(=O)[nH]c(=O)c2c1nc(-c1ccc(OC(F)F)cc1)n2CCN1CCOCC1`, the activation was inactive: -1%.

For `CC(C)(C)NC(=O)Cn1c(SCC(=O)N2CCCCCC2)nc2ccccc21`, the activation is inactive: 19.7%.

As to `CSCC[C@H](NC(=O)N1CCn2c1nc1ccccc12)C(=O)NCc1ccco1`, the activation was inactive: -3.6%.

On to `Cc1ccc2c(c1)C1CN(C)CCC1N2C(=O)Nc1cccc(C(F)(F)F)c1` (stereo unspecified), for which the activation is inactive: 1.6%.

`Cn1c(=O)c2c(ncn2CC(=O)Nc2ccc(N3CCOCC3)cc2)n(C)c1=O`: the activation was inactive: 7.7%.

Regarding `CSc1nc2ccccc2n1CC(=O)N1CCCCC1`, the activation was inactive: -4.4%.

Take `CC(C)OC(=O)c1ccc(NC(=O)Cn2c(-c3nonc3N)nc3ccccc32)cc1`: the activation was inactive: -1.8%.

Consider `C/C(=N\NC(=O)Cn1c(-c2ccccn2)nc2ccccc21)c1ccccc1`, for which the activation is inactive: -7%.

As for `O=[N+]([O-])c1ccc2c(c1)nc1n2CCN(CC2CCCO2)C1` (stereo unspecified), the activation is inactive: -3.7%.

In the case of `C/C(=N\NC(=O)Cn1cnc2ccccc21)c1cccs1`, the activation was inactive: -5.6%.

On to `CN(C)C(=O)Cn1c(=O)n(S(=O)(=O)c2ccccc2)c2ccccc21`, for which the activation was inactive: -2.8%.

`c1ccc(CN2CCC(Nc3ncnc4sccc34)CC2)cc1`: the activation is inactive: -5.1%.

Regarding `CCCCc1nc2ccccc2n1CC(=O)NN`, the activation is inactive: 9%.

Take `CC(C)(C)C(=O)NC(Sc1ccncn1)C(Cl)(Cl)Cl` (stereo unspecified): the activation is inactive: 5.6%.

On to `CSCC[C@H](NC(=O)N1CCn2c1nc1ccccc12)C(=O)N[C@@H](C(=O)O)c1ccccc1`, for which the activation is inactive: -3.6%.

On to `Cn1c(=O)c2c(ncn2CC(=O)NC(C)(C)C)n(C)c1=O`, for which the activation was inactive: 6.9%.

For the compound `CCN(Cc1ccccc1)C(=O)Cn1c(C(C)O)nc2ccccc21` (stereo unspecified), the activation was inactive: 3%.

For the compound `COC(=O)c1ccc(N2C(=O)CC(N3CCC(n4c(=O)[nH]c5ccccc54)CC3)C2=O)cc1` (stereo unspecified), the activation is inactive: 2%.

Regarding `COc1cccc(CNC(=O)CCNC(=O)N2CCn3c2nc2ccccc23)c1`, the activation is inactive: 3.1%.

As for `COc1cccc(NC(=O)Cn2c(-c3cncs3)nc3ccccc32)c1`, the activation is inactive: -3.5%.

As for `O=C1CCC(=O)N1c1ccc(NC2CCN(Cc3ccccc3)CC2)c([N+](=O)[O-])c1`, the activation is inactive: -4.3%.

In the case of `O=C(c1ccccc1Br)N1CCn2c1nc1ccccc12`, the activation is inactive: 0.6%.

Take `O=C(O)CNc1ccc([As](=O)(O)O)cc1`: the activation was inactive: 5.8%.

Take `Cc1cccc(NC(=O)Cn2c(/C=C/c3ccccc3)nc3ccccc32)c1`: the activation is inactive: -3.9%.

`Cc1nn(CC(=O)Nc2ccc3c(c2)nc2n3CCN(C3CCCCC3)C2)c(=O)c2ccccc12`: the activation is inactive: 5%.

For the compound `O=[N+]([O-])c1ccc(NC2CCN(Cc3ccccc3)CC2)c2ccncc12`, the activation was inactive: -4%.

For `Cc1noc(C)c1S(=O)(=O)N(CC(=O)N1CCn2c1nc1ccccc12)c1ccc(C(C)C)cc1`, the activation was inactive: -10.1%.

With `CCOC(=O)N1CCN(c2c(NC3CCN(Cc4ccccc4)CC3)c(=O)c2=O)CC1`, the activation was inactive: -2.5%.

For the compound `CC(C)Sc1nc2ccccc2n1CC(N)=O`, the activation is inactive: 1.7%.

Take `O=C(Cn1cnc2ccccc21)N1CCN(S(=O)(=O)c2ccccc2)CC1`: the activation is inactive: 9.1%.

For the compound `CN(C)C1(c2nnnn2-c2ccc(Cl)cc2)CCCCC1`, the activation was inactive: -5.5%.

Take `O=[N+]([O-])c1cccc(NC2=NCC(CBr)S2)c1` (stereo unspecified): the activation is inactive: 2.1%.

On to `COc1ccc(Cc2nc3ccccc3n2CC(=O)N/N=C/c2ccc(O)cc2)cc1OC`, for which the activation is inactive: -2.8%.

In the case of `CCN(CC)S(=O)(=O)c1ccc(NC2CCN(Cc3ccccc3)CC2)nc1`, the activation is inactive: 1.9%.

As to `O=S(=O)(Cc1ccccc1)N1CCn2c(nc3ccccc32)C1`, the activation is inactive: -8.2%.

For the compound `CC1CCCN(Cc2nc3c(c(=O)n(C)c(=O)n3C)n2CC(N)=O)C1` (stereo unspecified), the activation was inactive: 1.8%.

As to `CN1CCN(c2nc3c(c(=O)n(C)c(=O)n3C)n2CC(N)=O)CC1`, the activation was inactive: -1.8%.

With `CC(C)[C@H](NC(=O)N1CCn2c1nc1ccccc12)C(=O)N[C@H](C(=O)O)c1ccccc1`, the activation was inactive: 3.3%.

In the case of `O=C(Cn1cnc2ccccc21)NCCCN1CCOCC1`, the activation is inactive: 2.3%.

Consider `CC(C)[C@H](NC(=O)N1CCn2c1nc1ccccc12)C(=O)NCc1ccc2c(c1)OCO2`, for which the activation is inactive: -3.2%.

Consider `Cn1c(=O)c2ncn(CC(=O)NC3CCCCCC3)c2n(C)c1=O`, for which the activation is inactive: 20.5%.

Consider `Cn1c(=O)n(Cc2ccc(Cl)cc2)c(=O)c2c1nc1n2CCN1Cc1ccco1`, for which the activation was inactive: -0.4%.

`O=[N+]([O-])c1ccccc1NC1CCN(Cc2ccccc2)CC1`: the activation is inactive: 4.1%.

With `Cc1ccc2c(c1)C1CN(C)CCC1N2C(=O)Nc1ccc(Cl)cc1` (stereo unspecified), the activation was inactive: -8.7%.

Regarding `Cc1ccc2c(c1)C1CN(C)CCC1N2C(=O)c1cccnc1Cl` (stereo unspecified), the activation is inactive: 2.5%.

Regarding `COc1ccc(N2CCn3c2nc2c3c(=O)n(CCc3ccccc3)c(=O)n2C)cc1`, the activation is inactive: -3.2%.

For the compound `N#CCC(=O)N/N=C\c1ccccc1OC/C=C/c1ccccc1`, the activation was inactive: 1.8%.

Take `Cc1ccc2c(c1)C1CN(C)CCC1N2CC(=O)N(C)c1ccccc1` (stereo unspecified): the activation is inactive: -6.7%.

Take `CCOC(=O)Nc1ccc2c(c1)nc1n2CCN(CCOC)C1`: the activation was inactive: 2%.

In the case of `COc1ccc(Cc2nnc(NC(=O)Cn3cnc4c3c(=O)n(C)c(=O)n4C)s2)cc1`, the activation is inactive: -2.5%.

With `CCN(CC)CCn1c(=N)n(CC(O)c2ccco2)c2ccccc21` (stereo unspecified), the activation was inactive: -1.5%.

For the compound `Cn1c(=O)c2c(nc(NCCc3ccccc3)n2CC(=O)NCCc2ccccc2)n(C)c1=O`, the activation is inactive: -1.2%.

As for `Cc1cc(NC(=O)CSc2nc3ccccc3n2CC(=O)N2CCCCC2)no1`, the activation was inactive: -1.6%.

As for `Cc1ccc(-c2csc(N3CCN(c4cc5c(cc4Cl)nc(C)n5CCN4CCCCC4)CC3)n2)cc1`, the activation was inactive: 0.4%.

For the compound `O=C(CCCN1CCC2(CC1)C(=O)NCN2c1ccccc1)c1ccc(F)cc1`, the activation was inactive: 2.6%.

Regarding `COc1cc(NC(=O)Cn2c(-c3cncs3)nc3ccccc32)cc(OC)c1OC`, the activation is inactive: 2%.

With `Cn1c(=O)c2c(nc(CN3CCN(c4ccc(F)cc4)CC3)n2CCN2CCOCC2)n(C)c1=O`, the activation is inactive: 7.3%.

For `CC1CN(Cc2nc3c(c(=O)[nH]c(=O)n3C)n2CC(N)=O)CC(C)O1` (stereo unspecified), the activation is inactive: 1.5%.

`Cn1c(=O)[nH]c(=O)c2c1nc(NC1CCCCC1)n2CC(=O)NC1CCCCC1`: the activation was inactive: -0.8%.
